Test results reported in patent US8962641B2, “Pyrimidine-substituted pyrrolidine derivatives, pharmaceutical compositions and uses thereof” (Boehringer Ingelheim International GmbH, priority 2013, dated 2015).

The chains behind the UniProt entries cited, without tags or fusion partners. Residues count along the entry.
UniProt O00763, 129-2458: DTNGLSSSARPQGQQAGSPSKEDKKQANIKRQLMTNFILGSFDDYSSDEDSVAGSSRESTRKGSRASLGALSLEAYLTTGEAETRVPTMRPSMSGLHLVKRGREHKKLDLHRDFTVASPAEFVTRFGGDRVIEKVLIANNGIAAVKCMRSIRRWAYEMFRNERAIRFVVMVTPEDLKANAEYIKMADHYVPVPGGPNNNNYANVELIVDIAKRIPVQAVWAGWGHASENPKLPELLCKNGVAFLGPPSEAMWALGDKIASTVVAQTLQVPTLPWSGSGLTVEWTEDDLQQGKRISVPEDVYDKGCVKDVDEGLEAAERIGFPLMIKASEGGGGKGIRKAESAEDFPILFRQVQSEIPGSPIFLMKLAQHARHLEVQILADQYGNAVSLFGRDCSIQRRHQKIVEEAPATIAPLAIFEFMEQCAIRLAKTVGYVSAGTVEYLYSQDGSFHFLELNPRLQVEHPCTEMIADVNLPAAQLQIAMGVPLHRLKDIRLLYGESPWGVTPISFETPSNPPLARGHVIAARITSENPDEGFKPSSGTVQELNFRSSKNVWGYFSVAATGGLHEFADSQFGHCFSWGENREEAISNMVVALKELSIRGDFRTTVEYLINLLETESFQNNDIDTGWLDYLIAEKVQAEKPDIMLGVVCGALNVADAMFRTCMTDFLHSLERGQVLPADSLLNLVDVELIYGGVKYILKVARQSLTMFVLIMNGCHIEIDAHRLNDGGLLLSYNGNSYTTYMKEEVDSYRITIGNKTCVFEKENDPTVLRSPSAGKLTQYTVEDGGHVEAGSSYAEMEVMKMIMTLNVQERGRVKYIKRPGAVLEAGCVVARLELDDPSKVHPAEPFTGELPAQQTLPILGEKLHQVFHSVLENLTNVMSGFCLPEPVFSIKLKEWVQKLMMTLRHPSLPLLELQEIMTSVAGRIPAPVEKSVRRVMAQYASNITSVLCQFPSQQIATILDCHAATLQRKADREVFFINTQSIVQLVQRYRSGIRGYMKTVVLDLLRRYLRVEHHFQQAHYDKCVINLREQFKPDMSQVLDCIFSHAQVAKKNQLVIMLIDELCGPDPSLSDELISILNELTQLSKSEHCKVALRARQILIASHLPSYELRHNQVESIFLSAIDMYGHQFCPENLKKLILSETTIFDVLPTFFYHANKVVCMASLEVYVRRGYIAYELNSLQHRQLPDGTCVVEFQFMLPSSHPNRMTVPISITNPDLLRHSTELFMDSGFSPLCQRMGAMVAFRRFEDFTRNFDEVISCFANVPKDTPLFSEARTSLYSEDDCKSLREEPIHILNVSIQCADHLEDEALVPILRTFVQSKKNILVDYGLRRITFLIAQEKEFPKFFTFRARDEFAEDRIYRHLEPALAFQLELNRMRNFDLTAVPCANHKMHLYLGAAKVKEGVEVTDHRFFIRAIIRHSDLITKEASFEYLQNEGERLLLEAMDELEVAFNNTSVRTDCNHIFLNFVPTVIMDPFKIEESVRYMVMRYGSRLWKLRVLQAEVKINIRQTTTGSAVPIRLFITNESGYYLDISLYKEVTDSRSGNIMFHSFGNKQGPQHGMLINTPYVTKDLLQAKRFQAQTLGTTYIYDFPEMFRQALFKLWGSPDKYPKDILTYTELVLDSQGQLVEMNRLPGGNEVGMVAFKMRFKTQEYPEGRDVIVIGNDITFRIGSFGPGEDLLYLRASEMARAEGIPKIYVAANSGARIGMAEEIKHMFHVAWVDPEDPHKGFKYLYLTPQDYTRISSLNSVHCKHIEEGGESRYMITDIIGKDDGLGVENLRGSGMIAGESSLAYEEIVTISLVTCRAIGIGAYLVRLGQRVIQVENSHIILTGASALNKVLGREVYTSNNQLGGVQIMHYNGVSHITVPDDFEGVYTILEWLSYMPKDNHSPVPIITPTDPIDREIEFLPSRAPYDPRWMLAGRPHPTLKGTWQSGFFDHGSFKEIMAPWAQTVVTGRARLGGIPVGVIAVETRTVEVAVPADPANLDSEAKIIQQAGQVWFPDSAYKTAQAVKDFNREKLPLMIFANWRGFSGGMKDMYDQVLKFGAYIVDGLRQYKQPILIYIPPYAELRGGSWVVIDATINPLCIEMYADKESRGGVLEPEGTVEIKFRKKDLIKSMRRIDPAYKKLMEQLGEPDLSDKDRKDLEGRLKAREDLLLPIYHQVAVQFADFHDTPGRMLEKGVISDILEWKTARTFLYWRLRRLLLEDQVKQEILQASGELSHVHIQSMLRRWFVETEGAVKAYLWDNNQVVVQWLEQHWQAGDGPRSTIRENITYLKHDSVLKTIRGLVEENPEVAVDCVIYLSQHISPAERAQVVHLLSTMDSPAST

What follows are compounds tested against human ACC2 (Homo sapiens (Human), UniProt O00763) (assay: ACC2 assay (spectrophotometric 384 well assay, NADH-linked kinetic method)). Conditions: hACC2 construct lacking 128 N-terminal amino acids; coupled lactate dehydrogenase/pyruvate kinase reaction, 340 nm, 25° C.
Type: biochemical
Method: Spectrophotometric 384 Well Assay
Malonyl CoA formation by acetyl CoA carboxylases is stoichometrically linked to the consumption of ATP. ACC2 activity is measured in a NADH-linked kinetic method measuring ADP generated during the ACC reaction using a coupled lactate dehydrogenase/pyruvate kinase reaction.
The protein is then expressed in insect cells using a baculoviral expression system. Protein purification is performed by anion exchange.
All compounds are dissolved in dimethyl sulfoxide (DMSO) to a concentration of 10 mM.
The enzymatic reaction is then started by addition of a mixture of NADH, acetyl Coenzyme A (both 200 μM f.c.) and ATP (500 uM f.c.). The decrease of the optical density (slope S) is then determined at 25° C. at a wavelength of 340 nm over 15 minutes in a spectrophotometric reader.
Each assay microtiter plate contains wells with vehicle instead of compound as controls for the non-inhibited enzyme (100% CTL; ‘HIGH’) and wells without acetyl-CoA as controls for non-specific NADH degradation (0% CTL; ‘LOW’).

Row | SMILES | IC50
1 | CC(=O)N[C@@H](C)c1ccc(O[C@@H]2CCN(c3ccnc(N4CC5CCCC5C4)n3)C2)cc1 (stereo partly shown) [Example 8.15] | 410 nM
2 | COc1c(OCC2CC2)ncnc1N1CC[C@@H](Oc2ccc([C@H](C)NC(=O)C3CC3)cc2)C1 [Example 10.3] | 406 nM
3 | CC(=O)N[C@@H](C)c1ccc(O[C@@H]2CCN(c3ncnc(N4CC(F)(F)C4)c3F)C2)cc1 [Example 8.249] | 404 nM
4 | CC(=O)N[C@@H](C)c1ccc(O[C@@H]2CCN(c3ncc(Oc4ccccn4)cn3)C2)cc1 [Example 7.13] | 410 nM

The remaining lines, values ahead:

Row | IC50 | SMILES
5 | 407 nM | CO[C@H]1CCN(c2ncc(Cl)c(N3CC[C@@H](Oc4ccc([C@H](C)NC(C)=O)cc4)C3)n2)C1 [Example 8.160]
6 | 405 nM | CC(=O)N[C@@H](C)c1ccc(O[C@@H]2CCN(c3nc(OC4CCCC4)ncc3F)C2)cc1 [Example 7.16]
7 | 418 nM | COC1CCCN(c2nccc(N3CC[C@@H](Oc4ccc([C@H](C)NC(C)=O)cc4)C3)n2)C1 (stereo partly shown) [Example 8.227]
